These results are taken from ChEMBL document CHEMBL3271956, “Oxindole-3-spiropyrrolidines and -piperidines. Synthesis and local anesthetic activity” (J Med Chem, 1976).

Each structure is given as a SMILES string.

The series concerns Mus musculus. Nature of the series: Toxicity in iv dosed mouse relative to lidocaine. The settings on record: in vivo. It is filed as organism-based.

In the case of `CCN(CC)CC(=O)Nc1c(C)cccc1C` [LIDOCAINE], the Ratio was found to be 1.
